The experiment has as its system JNK2. Format: cell-based.

Results on one molecule are retold here after paper PMC3262757 (Chemistry Central Journal, 2011).

The structures appear in SMILES notation. pIC50: −log10 of the molar value.

A word on the pIC50: it is the IC50 on a negative log10 scale, so that one unit is a factor of ten. Higher therefore signals a low IC50.

On to `CCOc1nc(NC(=O)Cc2cc(OC)ccc2OC)cc(N)c1C#N` [compound 1, N-(4-Amino-5-cyano-6-ethoxypyridin-2-yl)-2-(2,5-dimethoxyphenyl)acetamide], for which the negative logarithm of the IC50 (pIC50) was ~5.82.
